Values of other authors, collected in patent US12605432B2, “Combinations for antigen based therapy” (Diamyd Medical AB, priority 2014, dated 2026).

Tested on: patients with recent-onset type 1 diabetes

For “abatacept: Fc modified CTLA4 immunoglobulin; fusion protein of extracellular portion of human CTLA4 and heavy chain of human IgG1”, which “patients with peak stimulated C peptide >0.2 nmol/l” value (active arm, 36 months after commencement of treatment, placebo 30%) is on record?
Its value is 35%.

What about the “effect in DR3-negative patients” value (in vivo) of the same substance?
Its value is “lack of effect”.

And the “endogenous insulin secretion as measured by stimulated C peptide” value (over the initial 6 months as compared with placebo)?
Its value is “significantly preserves endogenous insulin secretion”.
